## Measured affinities in a library of Ab-14 heavy chain variants

Target: peptide PDVDLGDISGINAS, taken from heptad repeat 2 (HR2) of SARS-CoV-2 spike.

The variants keep the light chain, the linker and the frameworks of Ab-14 (scFv order VH, three GGGGS repeats, VL).
VH: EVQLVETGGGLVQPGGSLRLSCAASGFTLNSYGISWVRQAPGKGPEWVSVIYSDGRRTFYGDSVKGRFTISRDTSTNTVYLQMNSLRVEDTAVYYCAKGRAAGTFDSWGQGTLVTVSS
VL: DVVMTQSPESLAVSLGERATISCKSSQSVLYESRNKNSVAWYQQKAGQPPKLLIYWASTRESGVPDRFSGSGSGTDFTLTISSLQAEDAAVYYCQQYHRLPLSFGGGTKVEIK

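In library AAYL49, one, two or three CDR residues were substituted; doubles and triples were drawn at random. Affinity was read by AlphaSeq, a pooled yeast mating assay with surface-displayed partners. After mating in shaken culture at 30 °C for 16 h, diploids were selected and their barcode pairs sequenced. Each replicate has its own calibration line, from reference interactions of the BCL2 family. There are three technical replicates.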

Changes read parent residue, position, new residue, counted from the first residue of the VH shown. Every variant below is changed at L29 of the VH (sequential numbering). Numbers give log10(Kd / nM), so 0 is 1 nM and 3 is 1 µM. Smaller is tighter. Replicates are averaged; those with no signal do not enter the mean. A pair that was not seen in any replicate is written "nd"; this usually means weak binding, but a binder can also be missed. Background: pairings of library AAYL49 with three empty control strains gave a value in 15% of cases (median 4.06, 5th percentile 2.83). Values in that range, when seen in few replicates, are hard to tell from nonspecific mating.

With L29A/F59S/G99H the result was nd (0 of 3 replicates). The variant L29H/I34C/S107T showed nd (0 of 3 replicates). The variant L29T/R57P gave 3.83 (2 of 3 replicates). The variant L29A/G103K/D106N showed nd (0 of 3 replicates). For L29D/V50N/D62C, the assay gave 5.11 (2 of 3 replicates). The variant G26R/L29V/F105L gave 1.30 (3 of 3 replicates). With L29D/Y52H/D106I the result was nd (0 of 3 replicates).

The variant L29Q/T58A/V64I showed 3.52 (1 of 3 replicates). For L29I/V50D, the assay gave nd (0 of 3 replicates). The variant L29W/G33Q/F105P gave nd (0 of 3 replicates). For L29P/G55L, the assay gave nd (0 of 3 replicates). The variant L29M/A101H/T104C gave 3.55 (1 of 3 replicates). With L29Y/S31A/R57M the result was 4.60 (2 of 3 replicates). With L29R/S31D/T58W the result was 4.66 (1 of 3 replicates).

The variant L29E/G61N/D62Q showed 4.61 (1 of 3 replicates). The variant L29F/R100H/G103Q showed 3.13 (3 of 3 replicates). With L29K/I34Q/D106Q the result was 4.99 (2 of 3 replicates). The variant L29V/V64C/K65P showed nd (0 of 3 replicates). The variant L29V/S31D/F59H gave 5.34 (1 of 3 replicates). With L29T/G33L/Y52W the result was 2.83 (1 of 3 replicates). For F27C/L29H/Y60V, the assay gave nd (0 of 3 replicates).

With L29N/S35M the result was nd (0 of 3 replicates). With L29K/R56T/V64C the result was 5.44 (1 of 3 replicates). With L29M/I34D/F105C the result was nd (0 of 3 replicates). For L29W/S31V/R56T, the assay gave 4.37 (3 of 3 replicates). For L29W/V50N/V64C, the assay gave nd (0 of 3 replicates). The variant G26D/L29Q/R100S showed nd (0 of 3 replicates). For L29M/I34P/G99H, the assay gave 3.87 (1 of 3 replicates).

With F27R/L29Q/T58L the result was nd (0 of 3 replicates). With L29V/I51F/K65Y the result was nd (0 of 3 replicates). With L29H/A101N the result was 4.61 (3 of 3 replicates). The variant L29T/S63P/A101S gave 2.55 (2 of 3 replicates). For L29C/N30R/R100H, the assay gave nd (0 of 3 replicates). For L29F/V50R/V64R, the assay gave 3.69 (1 of 3 replicates). The variant L29S/D106K gave 3.42 (1 of 3 replicates).

With L29C/D106A the result was nd (0 of 3 replicates). The variant L29H/R100S gave 3.81 (1 of 3 replicates). For L29K/D54N/R56L, the assay gave nd (0 of 3 replicates). The variant L29Q/R57D/S107N gave nd (0 of 3 replicates). The variant L29N/G55L showed nd (0 of 3 replicates). The variant L29R/D62N/G99F showed nd (0 of 3 replicates). The variant L29G/V50D gave nd (0 of 3 replicates).

With T28E/L29W/I34G the result was 4.30 (1 of 3 replicates). The variant L29Y/R100G showed 3.98 (1 of 3 replicates). With G26K/L29N/G99S the result was 5.67 (2 of 3 replicates). The variant F27Q/T28Y/L29E gave 4.49 (2 of 3 replicates). The variant L29Y/Y32A/S107W showed 3.85 (1 of 3 replicates). The variant L29V/G33Y gave nd (0 of 3 replicates).

In this assay the parent's reference entry averaged 0.65; its copy inside this library read 4.11 (one replicate of three).

Reference: Engelhart et al. 2022, doi:10.1038/s41597-022-01779-4. File: FLAb, binding data.